Only a part is listed here, and it is no random draw. Records with an inconclusive call do not appear. Activity calls are given as the source filed them. The call rests on the fitted dose curve.
On the % scale 0 is the no-effect control and ±100 the full control effect.

The assay can be described thus: Primary qHTS Assay for Foot and Mouth Disease Virus Antivirals against NCGC Sytravon and CBC Compound Libraries: Firefly Luciferase Signal. Further: nearly all actives have a fitted effect of over 60% in size. To be noted: FMDV antiviral cell assay; at 22.9 µM (top of the series) unless noted.
On to `CCC(=O)N(c1ccccc1)C1(COC)CCN(CCc2cccs2)CC1`, for which the activity change, negative = inhibition was inactive: -7.37%. To `CCC(=O)N(c1ccccc1)C1(COC)CCN(CCn2nnn(CC)c2=O)CC1` belongs inactive: 0.764%; to `CN(CCCl)CCCl`, inactive: -2.4% [at 11.5 µM].

For the origin of these results see PubChem BioAssay AID1745856 (National Center for Advancing Translational Sciences (NCATS), 2022).
